The record followed here is patent US5300498A, “6-piperazinyl-1H-pyrazolo[3,4-b]pyridine-3-carboxylic acids, esters, amides and related compounds” (Hoechst-Roussel Pharmaceuticals Incorporated, priority 1993, dated 1994).

Usually IC50 stands for the concentration at which inhibition is half-maximal.

For the test, the system named is serotonin (5HT) uptake. Put plainly: [^3 H]-Serotonin Uptake in Rat Whole Brain and Hypothalamic Synaptosomes. Format: biochemical, rat (male CR Wistar). Conditions: 50 nM [^3 H]-5HT, 37° C., 5 minutes, read-out: Inhibition of Serotonin Uptake, IC50. The procedure:
[^3 H]-Serotonin Uptake in Rat Whole Brain and Hypothalamic Synaptosomes
A. Animals: Male CR Wistar rats (100-125 g).
1. Krebs-Henseleit Bicarbonate Buffer, pH 7.4 (KHBB):
Prior to use add to 200 ml, per assay:
Make a 4 liter batch, containing the following salts:
3. Sucrose solution: 0.32M sucrose containing 5 mM HEPES and 0.1 mM EDTA; pH to 7.3 using Tris base.
4. A 0.1 mM stock solution of serotonin creatinine SO4 is made up in 0.01N HCl. This is used to dilute the specific activity of the radiolabeled 5HT.
The final desired concentration of [^3 H]-5HT in the assay is 50 nM. The dilution factor is 0.8.
6. For most assays, a 0.5 mM stock solution of the test compound is made up initially in either 10 μl of glacial acetic acid, 100 μl DMSO or 10 μl of the recrystallization solvent, to which is added approximately 10 ml of distilled water. Compounds are initially screened in duplicate at 3 concentrations (10^-8, 10^-7 and 10^-6 M) made up in water.
43, 1114 (1984) and Dunkley, P. R., Jarvie, R. E., Heath, J. W., Kidd, G. J., Rostas, J. A. P. Brain Research 372, 115 (1986). Male Wistar rats are decapitated and the brain rapidly removed. […] The following procedures are performed on ice. Homogenization should be done with 4-5 up and down strokes at medium speeds (setting 4.5 to 5) to minimize synaptosome lysis. […]

For `CN(C)CCC=C1c2ccccc2CCc2ccccc21` [Amitriptyline, reference compound], the IC50 came out at 91 nM.
